Measured values as given in ChEMBL document CHEMBL3639166, “Heteroaryloxyheterocyclyl compounds as PDE10 inhibitors” (2013).

Biological target: T1, cAMP and cAMP-inhibited cGMP 3',5'-cyclic phosphodiesterase 10A (Rattus norvegicus, UniProt Q9QYJ6)
T1 sequence (Q9QYJ6 whole entry): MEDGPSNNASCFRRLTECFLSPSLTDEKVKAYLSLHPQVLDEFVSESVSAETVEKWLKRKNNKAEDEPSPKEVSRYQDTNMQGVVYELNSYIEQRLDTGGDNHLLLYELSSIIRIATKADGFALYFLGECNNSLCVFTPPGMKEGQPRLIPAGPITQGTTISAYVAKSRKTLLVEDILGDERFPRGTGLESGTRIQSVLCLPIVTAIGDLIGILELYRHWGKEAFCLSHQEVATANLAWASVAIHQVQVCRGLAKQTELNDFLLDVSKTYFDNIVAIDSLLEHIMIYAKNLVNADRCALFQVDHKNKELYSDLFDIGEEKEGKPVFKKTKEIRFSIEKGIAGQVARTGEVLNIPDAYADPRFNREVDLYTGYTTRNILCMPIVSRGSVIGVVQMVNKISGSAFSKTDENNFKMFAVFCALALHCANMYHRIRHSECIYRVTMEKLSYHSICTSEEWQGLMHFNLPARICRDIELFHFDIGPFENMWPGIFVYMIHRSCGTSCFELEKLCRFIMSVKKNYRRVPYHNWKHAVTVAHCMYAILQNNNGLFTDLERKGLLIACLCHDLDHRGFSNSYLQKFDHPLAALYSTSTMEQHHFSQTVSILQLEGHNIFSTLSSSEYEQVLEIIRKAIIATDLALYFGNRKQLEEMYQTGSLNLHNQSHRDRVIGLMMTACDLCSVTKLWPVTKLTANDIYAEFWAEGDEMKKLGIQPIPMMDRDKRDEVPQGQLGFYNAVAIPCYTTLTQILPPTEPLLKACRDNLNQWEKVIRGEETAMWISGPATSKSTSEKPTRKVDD
Experiment: Enzyme Inhibition Assay: Enzyme activity: An IMAP TR-FRET assay was used to analyze the enzyme activity (Molecular Devices Corp., Sunnyvale, Calif).

Structure (SMILES) | IC50 [nM]
OCC1CCN(c2nccnc2OC2CN(c3ccc4ccccc4n3)C2)C1 (centres undefined) | 43.4
c1ccc2nc(N3CC(Oc4nccnc4N4CC5CCC4C5)C3)ccc2c1 (centres undefined) | 109
Cc1cccnc1N1CCC(Oc2nccnc2C2CCOCC2)CC1 | 1720
Oc1ccc(N2CCC(Oc3ncccc3C3CCOCC3)CC2)nc1 | 1100
